In PubChem BioAssay (Tox21):
The list shows a part of the results, in another mix than the full data. Records with an inconclusive call do not appear. Activity calls are given as the source filed them. Unless noted, calls come from the whole dose curve.

Chains of the proteins cited; added tags and fusions are not shown.
UniProt P30968, whole entry: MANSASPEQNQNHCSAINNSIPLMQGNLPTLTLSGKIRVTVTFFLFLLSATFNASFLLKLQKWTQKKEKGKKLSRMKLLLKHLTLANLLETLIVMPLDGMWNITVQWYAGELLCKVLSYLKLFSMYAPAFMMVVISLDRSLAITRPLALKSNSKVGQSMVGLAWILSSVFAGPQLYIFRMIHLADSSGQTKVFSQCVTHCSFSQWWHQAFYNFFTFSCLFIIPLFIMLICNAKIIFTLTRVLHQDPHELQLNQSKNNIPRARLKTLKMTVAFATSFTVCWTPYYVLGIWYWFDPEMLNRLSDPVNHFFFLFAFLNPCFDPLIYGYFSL
UniProt Q969F8, whole entry: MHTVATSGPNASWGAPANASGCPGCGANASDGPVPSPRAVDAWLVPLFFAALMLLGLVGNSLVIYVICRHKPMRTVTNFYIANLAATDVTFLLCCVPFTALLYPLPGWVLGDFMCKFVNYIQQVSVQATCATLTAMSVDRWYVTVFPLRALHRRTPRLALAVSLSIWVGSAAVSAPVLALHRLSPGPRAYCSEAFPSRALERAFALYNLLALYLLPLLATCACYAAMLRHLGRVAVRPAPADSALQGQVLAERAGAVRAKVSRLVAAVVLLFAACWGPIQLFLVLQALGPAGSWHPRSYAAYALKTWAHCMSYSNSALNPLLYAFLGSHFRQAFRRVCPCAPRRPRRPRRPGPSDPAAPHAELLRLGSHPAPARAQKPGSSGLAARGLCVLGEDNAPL
UniProt P28223, whole entry: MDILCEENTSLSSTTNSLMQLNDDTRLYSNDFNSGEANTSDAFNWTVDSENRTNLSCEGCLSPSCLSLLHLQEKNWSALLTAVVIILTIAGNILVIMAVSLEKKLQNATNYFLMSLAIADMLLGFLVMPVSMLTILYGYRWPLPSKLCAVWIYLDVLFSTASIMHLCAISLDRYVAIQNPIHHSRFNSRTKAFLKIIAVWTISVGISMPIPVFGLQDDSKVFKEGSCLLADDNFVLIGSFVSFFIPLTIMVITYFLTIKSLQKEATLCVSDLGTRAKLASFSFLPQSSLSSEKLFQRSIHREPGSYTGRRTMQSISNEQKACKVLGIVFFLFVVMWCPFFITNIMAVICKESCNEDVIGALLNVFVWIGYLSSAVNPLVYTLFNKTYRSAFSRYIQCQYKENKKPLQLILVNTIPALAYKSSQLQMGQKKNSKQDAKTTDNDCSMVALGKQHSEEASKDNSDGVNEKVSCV
UniProt P11229, whole entry: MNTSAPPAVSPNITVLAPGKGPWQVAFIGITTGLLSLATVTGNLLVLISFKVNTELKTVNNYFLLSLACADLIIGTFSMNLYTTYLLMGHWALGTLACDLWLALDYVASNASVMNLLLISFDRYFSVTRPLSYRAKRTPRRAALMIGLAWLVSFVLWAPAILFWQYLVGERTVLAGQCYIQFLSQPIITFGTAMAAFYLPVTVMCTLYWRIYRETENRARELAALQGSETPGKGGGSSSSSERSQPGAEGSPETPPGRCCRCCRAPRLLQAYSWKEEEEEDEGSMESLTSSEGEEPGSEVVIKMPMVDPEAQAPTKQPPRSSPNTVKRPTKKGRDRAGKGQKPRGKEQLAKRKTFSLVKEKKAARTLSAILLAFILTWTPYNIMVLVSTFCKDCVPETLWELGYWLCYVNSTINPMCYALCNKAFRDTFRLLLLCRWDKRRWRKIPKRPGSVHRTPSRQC
UniProt P07550, whole entry: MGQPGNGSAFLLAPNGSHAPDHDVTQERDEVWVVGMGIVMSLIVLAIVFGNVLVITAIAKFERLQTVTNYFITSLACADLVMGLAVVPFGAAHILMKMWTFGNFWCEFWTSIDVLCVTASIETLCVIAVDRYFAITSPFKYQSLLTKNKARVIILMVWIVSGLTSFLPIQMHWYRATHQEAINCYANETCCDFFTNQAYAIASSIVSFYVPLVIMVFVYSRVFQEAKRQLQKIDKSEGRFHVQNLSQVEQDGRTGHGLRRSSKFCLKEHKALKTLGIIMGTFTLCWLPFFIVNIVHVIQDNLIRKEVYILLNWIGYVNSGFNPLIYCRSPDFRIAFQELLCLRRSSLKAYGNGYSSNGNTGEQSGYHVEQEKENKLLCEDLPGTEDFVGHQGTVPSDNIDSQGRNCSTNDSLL
UniProt P14416, whole entry: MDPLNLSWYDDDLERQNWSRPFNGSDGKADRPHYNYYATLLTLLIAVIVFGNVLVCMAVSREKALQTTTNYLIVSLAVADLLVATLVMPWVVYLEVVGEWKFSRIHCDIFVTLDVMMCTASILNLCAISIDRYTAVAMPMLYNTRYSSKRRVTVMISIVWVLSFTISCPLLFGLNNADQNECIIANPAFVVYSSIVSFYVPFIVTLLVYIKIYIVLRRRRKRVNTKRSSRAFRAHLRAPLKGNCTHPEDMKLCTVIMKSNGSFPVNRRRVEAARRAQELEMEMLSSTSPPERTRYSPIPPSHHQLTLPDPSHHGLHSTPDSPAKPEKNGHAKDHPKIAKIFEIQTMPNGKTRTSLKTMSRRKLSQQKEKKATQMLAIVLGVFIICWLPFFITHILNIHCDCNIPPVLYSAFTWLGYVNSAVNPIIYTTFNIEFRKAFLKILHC

Assays:
[1] = Nuclear factor erythroid 2-related factor 2/antioxidant responsive element (Nrf2/ARE) small molecule agonists: qHTS cell viability counter screen in human keratinocytes (AID 1919968; active = well fitted curve in the direction sought with a large enough effect in the repeat runs; an effect the other way counts as inactive or inconclusive; note: nearly all actives have a fitted effect of over 55% in size); details: KeratinoSens HaCaT ARE cells viability, CellTiter-Fluor, 24 h; at 92.4 µM (top of the series) unless noted
Procedure, shortened: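 KeratinoSens HaCaT cells, 1,500/well, preincubated 5 h, then exposed to compounds in DMSO for 23 h at 37 C/5% CO2. Viability read as CellTiter-Fluor fluorescence after 1 h, in the same wells as the ARE-luciferase read.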

[2] = molecular target: Gonadotropin-releasing hormone receptor (Homo sapiens) (UniProt P30968); test: Human gonadotropin-releasing hormone receptor (GnRHR) small molecule agonists, calcium flux assay in GnRHR-HEK293 cells (AID 1920063); details: calcium flux fluorescence, agonist mode, hits give high values; at 57.6 µM (top of the series) unless noted; note: nearly all actives have a fitted effect of over 35% in size
Procedure, shortened: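 HEK293 cells stably expressing human GnRHR were dye-loaded for 1 h at 37 C. Compound was added in agonist mode and fluorescence (Ex/Em 480/540) recorded kinetically for 3 min. Fifteen concentrations, triplicates.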

[3] = molecular target: KiSS-1 receptor (Homo sapiens) (UniProt Q969F8); test: Human kisspeptin (KISS1R) small molecule agonists, calcium flux assay in KISS1R-HEK293 cells (AID 1920064; active = well fitted curve in the direction sought with a large enough effect in the repeat runs; an effect the other way counts as inactive or inconclusive); details: KISS1R-HEK293, calcium flux fluorescence, agonist; at 76.8 µM (top of the series) unless noted
Procedure, shortened: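 HEK293 cells stably expressing human KISS1R were loaded with calcium dye for 1 h at 37 C, then given compound; fluorescence (Ex/Em 480/540) was read kinetically for 3 min. Fifteen concentrations, triplicate.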

[4] = G protein-coupled receptor (GPCR) small molecule agonists, calcium flux assay: HEK293 wild type cell line counter screen (AID 1920065); details: HEK293 WT calcium flux, fluorescence, agonist mode; at 57.6 µM (top of the series) unless noted
Procedure, shortened: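 Wild-type HEK293 cells plated 18 h, loaded with calcium dye 1 h at 37 C, then compounds added in agonist mode (ATP as positive control). Kinetic fluorescence Ex/Em 480/540 recorded 3 min at 1 sec intervals; 15 concentrations, triplicate.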

[5] = p53 small molecule agonists, cell-based qHTS assay with rat liver microsomes (AID 1963578); details: HCT-116 p53RE-bla, beta-lactamase ratio, 16 h; at 66 µM (top of the series) unless noted
Procedure, shortened: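 Agonist mode in p53RE-bla reporter cells, with compounds co-incubated 16 h at 37 C alongside 0.5 mg/mL rat liver microsomes and 0.5 mg/mL NADPH (final), followed by a 2 h LiveBLAzer detection step.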

[6] = p53 small molecule agonists, cell-based qHTS assay with human liver microsomes: qHTS cell viability counter screen (AID 1963579); details: p53RE-bla HCT-116 viability, ATP luminescence, 16 h, HLM; at 66 µM (top of the series) unless noted; note: nearly all actives have a fitted effect of over 45% in size
Procedure, shortened: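 Metabolically activated exposure: compounds, human liver microsomes and NADPH (0.5 mg/mL final apiece) were added to p53RE-bla cells seeded 5 h earlier, left 16 h at 37 C, and then assessed for viability by CellTiter-Glo luminescence.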

[7] = p53 small molecule agonists, cell-based qHTS assay with rat liver microsomes: qHTS cell viability counter screen (AID 1963580); details: p53RE-bla HCT-116 + rat microsomes, ATP viability, 16 h; at 66 µM (top of the series) unless noted; note: nearly all actives have a fitted effect of over 45% in size
Procedure, shortened: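 Intracellular ATP, by CellTiter-Glo luminescence, defines viability. HCT-116 p53RE-bla cells, 4,000 per well, were compound-treated in the presence of rat liver microsomes and NADPH for 16 h at 37 C.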

[8] = p53 small molecule agonists, cell-based qHTS assay: qHTS cell viability counter screen (AID 1963581); details: p53RE-bla HCT-116 viability, ATP luminescence, 16 h; at 66 µM (top of the series) unless noted; note: nearly all actives have a fitted effect of over 45% in size
Procedure, shortened: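 p53RE-bla HCT-116 cells, compounds added 5 h after plating and incubated 16 h at 37 C. Cytotoxicity measured in the same wells as intracellular ATP by CellTiter-Glo luminescence after 30 min at room temperature.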

[9] = p53 small molecule agonists, cell-based qHTS assay (AID 1963582; active = well fitted activation curve with a large enough effect in the signal ratio in the repeat runs, not every such curve was filed as active; the % refers to the signal ratio); details: HCT-116 p53RE-bla reporter, beta-lactamase FRET ratio, 16 h; at 66 µM (top of the series) unless noted
Procedure, shortened: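 p53RE-bla reporter cells, compounds added in DMSO after 5 h plating, incubated 16 h at 37 C. Beta-lactamase read via 2 h room-temperature LiveBLAzer B/G FRET substrate, fluorescence intensity.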

[10] = molecular target: 5-hydroxytryptamine receptor 2A (Homo sapiens) (UniProt P28223); test: 5-hydroxytryptamine receptor 2A (HTR2A) small molecule agonists, cell-based qHTS assay (AID 1963587); details: HTR2A-CHO cells, calcium flux fluorescence, agonist mode; at 76.8 µM (top of the series) unless noted; note: nearly all actives have a fitted effect of over 30% in size
Procedure, shortened: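 Kinetic calcium-flux fluorescence (2 min, 1 sec intervals) after compound addition in agonist mode. HTR2A-CHO cells were cultured 18 h, then dye-loaded 1 h at 37 C.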

[11] = molecular target: Muscarinic acetylcholine receptor M1 (Homo sapiens) (UniProt P11229); test: Cholinergic receptor muscarinic 1 (CHRM1) small molecule antagonists, cell-based qHTS assay (AID 1963588); details: CHRM1-CHO antagonist mode, calcium flux fluorescence; at 61.5 µM (top of the series) unless noted; note: nearly all actives have a fitted effect of over 40% in size
Procedure, shortened: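 CHRM1-CHO calcium-flux assay, antagonist mode. Cells were seeded 18 h, dye-loaded 1 h at 37 C and given compound for 5 min at RT, then acetylcholine was added at 50nM. FDSS fluorescence was read 3 min; 15 concentrations, three runs.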

[12] = molecular target: Muscarinic acetylcholine receptor M1 (Homo sapiens) (UniProt P11229); test: Cholinergic receptor muscarinic 1 (CHRM1) small molecule agonists, cell-based qHTS assay (AID 1963589); details: CHRM1-CHO cells, agonist mode, calcium flux fluorescence; at 76.8 µM (top of the series) unless noted; note: nearly all actives have a fitted effect of over 35% in size
Procedure, shortened: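 CHO cells stably expressing human CHRM1 were loaded with calcium dye for 1 h at 37 C, then compound was added in agonist mode. Intracellular calcium fluorescence was followed kinetically at 1 s intervals. Fifteen concentrations were tested in three independent runs.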

[13] = cAMP Responsive Elements (CRE) small molecule agonists, cell-based qHTS assay (AID 1963590); details: CRE-bla HEK293T, beta-lactamase FRET ratio, 3 h; at 92.4 µM (top of the series) unless noted
Procedure, shortened: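 CRE-bla HEK 293T cells, 2,000/well in DMEM with 10% dialyzed FBS and 25 mM HEPES, pre-incubated 18 h at 37 C, then exposed to compound 3 h at 37 C. Beta-lactamase reporter read with LiveBLAzer B/G FRET substrate after 2 h at room temperature.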

[14] = cAMP Responsive Elements (CRE) small molecule antagonists, cell-based qHTS assay (AID 1963591; active = well fitted inhibition curve with a large enough effect in the signal ratio in the repeat runs, not every such curve was filed as active; the % refers to the signal ratio); details: CRE-bla HEK293T, beta-lactamase FRET ratio; at 92.4 µM (top of the series) unless noted
Procedure, shortened: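 CRE-bla HEK293T cells plated 18 h, then given compound plus NKH477 at 0.25 uM final for 3 h at 37C. Beta-lactamase reporter read with LiveBLAzer B/G FRET substrate after 2 h at room temperature.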

[15] = molecular target: Beta-2 adrenergic receptor (Homo sapiens) (UniProt P07550); test: Adrenergic beta2 receptor (ADRB2) small molecule antagonists, cell-based qHTS assay (AID 1963592); details: CHO-ADRB2 cells, isoproterenol-stimulated cAMP HTRF ratio, 0.5 h; at 92.4 µM (top of the series) unless noted; note: nearly all actives have a fitted effect of over 50% in size
Procedure, shortened: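 Cells (CHO, stable ADRB2 overexpression) incubated 18-20hr at 37C; compounds added from DMSO; agonist mix (1nM isoproterenol, 100uM IBMX, 25uM Ro-20-1724) added; 0.5hr RT; d2-cAMP and anti-cAMP-cryptate added; 1hr RT; 665/615 nm read.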

[16] = molecular target: Beta-2 adrenergic receptor (Homo sapiens) (UniProt P07550); test: Adrenergic beta2 receptor (ADRB2) small molecule agonists, cell-based qHTS assay (AID 1963593); details: CHO-ADRB2 cells, cAMP HTRF, 30 min; at 92.4 µM (top of the series) unless noted;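 note: CHO cells stably overexpressing human ADRB2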
Procedure, shortened: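 CHO cells stably over-expressing ADRB2 were plated overnight at 37C, then dosed with compounds plus a stimulation mix containing 100uM IBMX and 25uM Ro-20-1724 for 0.5hr at room temperature. cAMP was measured by HTRF competition, 1hr.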

[17] = molecular target: D(2) dopamine receptor (Homo sapiens) (UniProt P14416); test: Dopamine D2 receptor (DRD2) small molecule agonists, cell-based qHTS assay (AID 1963594); details: HEK293-DRD2 cAMP HTRF, agonist mode, 30 min; at 92.4 µM (top of the series) unless noted; note: nearly all actives have a fitted effect of over 35% in size
Procedure, shortened: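 cAMP accumulation in DRD2-HEK293 cells measured by HTRF after 1 h detection; compounds added 10 min before NKH477 (200nM […]) forskolin-analogue stimulation, 30 min at room temperature, with Ro20-1724 present at 0.1 mM final.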

[18] = molecular target: D(2) dopamine receptor (Homo sapiens) (UniProt P14416); test: Dopamine D2 receptor (DRD2) small molecule antagonists, cell-based qHTS assay (AID 1963595; active = well fitted inhibition curve with a large enough effect in the signal ratio in the repeat runs, with a control signal flat; the % refers to the signal ratio); details: HEK293-DRD2 cAMP HTRF antagonist mode; at 92.4 µM (top of the series) unless noted
Procedure, shortened: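 Readout: HTRF cAMP, cAMP-d2 competing with cellular cAMP for anti-cAMP cryptate, read after 1 h. Cells: DRD2-HEK293. Conditions: 0.1 mM Ro20-1724, 12 nM quinpirole, 200 nM NKH477, 30 min RT.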
% is set by controls: 0 for no effect and ±100 for the full control effect.

CC(C)OP(OC(C)C)OC(C)C
inactive: activity change, negative = cytotoxicity [1] 2.66% | activity change [2] 0.0414% | activation [3] 0.17% | activation [4] 0.165% | activation [5] 7.18% | activity change, negative = cytotoxicity [6] 1.08% | activity change, negative = cytotoxicity [7] 0.87% | activity change, negative = cytotoxicity [8] 19.6% | activation [9] 7.9% | activation [10] -0.762% | activity, negative = inhibition [11] 33.3% | activation [12] 0.13% | activation [13] -1.45% | activity change, negative = inhibition [14] -0.811% | activity change, negative = inhibition [15] 5.79% | activation [16] -2.83% | activation [17] 1.68% | activity change, negative = inhibition [18] -6.96%
